From PubChem BioAssay AID1242 (PCMD, 2008)
Only a part is listed here, and it is no random draw. Active and inactive are the calls of the source.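 The calls were made as follows: active = inhibition above 30.3% in the primary screen of four-compound pools, then above 30% when the compound was retested; inconclusive = passed the primary limit but could not be retested; inactive = the rest.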

Test: Candida albicans biofilm persister killing – 4-compound mixtures, primary screen (AID 1242);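 also: compounds exposed to preformed 24 h biofilms for 48 h; 0% = untreated biofilm control and 100% = clotrimazole plus chlorhexidine kill blank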
Conditions: C. albicans biofilm persisters + clotrimazole, fluorescence viability; primary screen in compound mixtures of four per well; at 7.6 µM; active compounds read high

Compound | inhibition
CP(=O)(Nc1ccc(SC(F)(F)F)cc1)Oc1ccc(Cl)cc1 (stereo not drawn) | inactive: 18.1%
Cc1cc(C)cc(OP(C)(=O)Nc2ccc(SC(F)(F)F)cc2)c1 (stereo not drawn) | inactive: 5.76%
CCc1ccc(OP(C)(=O)N2CCN(c3ccc([N+](=O)[O-])cc3)CC2)cc1 (stereo not drawn) | inactive: 23.4%
CCOC(=O)c1ccc(NC(=O)C(C)(CCl)SC)cc1 (stereo not drawn) | inactive: 12.1%
CCOC(=O)c1ccc(NP(C)(=O)Oc2ccc(OC)cc2)cc1 (stereo not drawn) | inactive: -0.06%
CCC(C)N(CC(C)C)C(=S)SC(NC(C)=O)C(Cl)(Cl)Cl (stereo not drawn) | inactive: 7.55%
CCOC(=O)Nc1ccc([As](=O)(O)O)c(O)c1 | inactive: 18.5%
Cc1cc(SC(NC(=O)c2ccccc2)C(Cl)(Cl)Cl)nc(C(C)C)n1 (stereo not drawn) | inactive: 2.77%
CCOC(=O)Nc1cccc([As](=O)(O)O)c1 | inactive: 21%
O=[N+]([O-])c1ccc(Nc2ccc(Oc3ccc([N+](=O)[O-])cc3[N+](=O)[O-])cc2)c([N+](=O)[O-])c1 | inactive: 4.35%
CP(=O)(Nc1ccccc1Br)Oc1ccccc1 (stereo not drawn) | inactive: 20.9%
COc1ccccc1OP(C)(=O)Nc1ccccc1 (stereo not drawn) | inactive: 12.8%
O=P(Nc1ccccn1)(c1cccc2ccccc12)c1cccc2ccccc12 | inactive: -17.7%
Cc1cc(SC(NC=O)C(Cl)(Cl)Cl)ncn1 (stereo not drawn) | inactive: 19%
COc1cc(C2NCCC3(OCCO3)C2(C)C)cc(OC)c1OC.O=[N+]([O-])c1cc([N+](=O)[O-])c(O)c([N+](=O)[O-])c1 (stereo not drawn) | inactive: 12.3%
CC1CCC(C(C)C)C(OP(=O)(Nc2ccccn2)c2ccccc2)C1 (stereo not drawn) | inactive: 4.27%
O=C(/C=C/c1ccccc1)OC1CN2CCC1CC2 (stereo not drawn) | inactive: 17%
CCOC(=O)C(CC)C1=NC(C)(C)Cc2ccccc21.O=[N+]([O-])c1cc([N+](=O)[O-])c(O)c([N+](=O)[O-])c1 (stereo not drawn) | inactive: 24.4%
CN(C)C1(CNC(=O)c2ccc(S(C)(=O)=O)cc2)CCCCC1 | inactive: 1.82%
O=[N+]([O-])c1cc([N+](=O)[O-])c(Nc2nnnn2CCO)c([N+](=O)[O-])c1 | inactive: 20.2%
CN1CCCCC1COC(=O)C1(O)c2ccccc2CCc2ccccc21 (stereo not drawn) | inactive: 5%
O=[As](O)(c1cccs1)c1cccs1 | inactive: 18.8%
CP(=O)(Nc1ccc(SC(F)(F)F)cc1)Oc1ccccc1 (stereo not drawn) | inactive: 10.4%
Nc1cccc([As](=O)(O)c2ccccc2)c1 | inactive: 10.3%

Compound | inhibition
CCOP(=O)(Nc1ccc(C)cn1)OCC | inactive: 23.6%
O=[N+]([O-])c1cc([N+](=O)[O-])c(-n2nnc3ccccc32)c([N+](=O)[O-])c1 | inactive: 5.12%
CC(C)(C)C(=O)NC(Sc1ncccn1)C(Cl)(Cl)Cl (stereo not drawn) | inactive: 28.4%
O=[As](O)(c1ccccc1Br)c1ccccc1Br | inactive: 19.6%
CC(C)/C=N\N=C(\N)N[N+](=O)[O-] | inactive: 0.82%
COc1ccccc1OP(C)(=O)Nc1cccc(Br)c1 (stereo not drawn) | inactive: 14.8%
O=[As](O)(O)c1cccnc1 | inactive: 20%
COc1cc(C(=O)NCC2(N3CCOCC3)CCCCC2)cc(Cl)c1OC(C)C | inactive: 3.64%
O=C(OC1CN2CCC1CC2)c1ccc(Cl)cc1 (stereo not drawn) | inactive: 7.43%
CCOC(=O)c1ccc(NP(C)(=O)Oc2cc(C)cc(C)c2)cc1 (stereo not drawn) | inactive: 13%
O=[As](O)(c1cccc(O)c1)c1cccc(O)c1 | inactive: 23.9%
CCCOP(=S)(Nc1nc(N)cc(=O)[nH]1)OCCC | inactive: 27.2%
Cc1ccc(NCCc2c([N+](=O)[O-])cc([N+](=O)[O-])cc2[N+](=O)[O-])cc1 | inactive: 5.9%
Nc1cccc2c([As](=O)(O)O)cccc12 | inactive: 17.9%
CP(=O)(Nc1cccc(Br)c1)Oc1ccccc1 (stereo not drawn) | inactive: 12.1%
CCOP(=O)(Nc1cccc2ccccc12)OCC | inactive: 20.4%
CS(=O)(=O)c1cc([N+](=O)[O-])c2no[n+]([O-])c2c1 | inactive: 18.6%
O=P(Nc1nccs1)(Oc1ccccc1)Oc1ccccc1 | inactive: 13%
O=C(O)c1cccc(Nc2c([N+](=O)[O-])cc([N+](=O)[O-])cc2[N+](=O)[O-])c1 | inactive: -4.57%
Nc1ccccc1[As](=O)(O)c1ccccc1 | inactive: 11.6%
O=C(O)COc1ccc([As](=O)(O)O)cc1[N+](=O)[O-] | inactive: 0.67%
NC(=O)Nc1ccc([As](=O)(O)O)cc1 | inactive: 12.4%
CC1=NCCc2c1[nH]c1ccccc21.O=[N+]([O-])c1cc([N+](=O)[O-])c(O)c([N+](=O)[O-])c1 | inactive: 5.62%
CN(C(=O)Cc1ccccc1)[C@@H]1CC[C@]2(CCCO2)C[C@H]1N1CCCC1 | inactive: 10.8%
